Experimental findings from patent US20110224182A1, “SALTS OF (3-0-(3',3'-[…]) BETULINIC ACID AND SOLID STATE FORMS THEREOF” (Myriad Pharmaceuticals, Incorporated, priority 2007, published 2011) are described below.

The data set is described as follows: In vivo pharmacokinetic studies (Method H), plasma levels by LC-MS/MS. Also noted: species or system male Sprague-Dawley rats. The following applies: rat, oral gavage, relative to DSB-2 NMG. How it is done:
Method H—In Vivo Pharmacokinetic Studies
In vivo experiments were conducted in male Sprague-Dawley rats having a body mass of 225 g to 275 g with an appropriate cannula surgically inserted. Rats were supplied food and water ad libitum until 12 hours before dosing when food was removed. Food was withheld until four hours post-dosing. Water was available ad libitum. Each of group of rats consisted of 3 rats.
Dosing solutions were prepared the same day as dose administration. […] The administered dose of each salt was 1 mg/kg for intravenous administration and 10 mg/kg for oral gavage. Formulations for intravenous administration were filtered after preparation. […]
Sampling was performed at predose, 2, 5, 15, and 30 minutes, 1, 2, 4, and 8 hours post dose. […] Plasma was separated and stored at −60° C. to −80° C. until analyzed.
Plasma levels of the compounds were determined by LC-MS/MS. Quantification of the compounds in plasma was performed against a calibration curve generated by serial dilution of a test article DMSO stock solution into blank heparinized rat plasma (50, 100, 200, 500, 1,000, 2,000, 5,000, and 10,000 ng/mL final concentrations of free drug). […]
All data are expressed as ng/mL of the free drug. Samples that were below the limit of quantification (“bloq”) were assigned a value of zero for the mean concentration calculations.

For the compound `C=C(C)[C@@H]1CC[C@]2(C(=O)O)CC[C@]3(C)[C@H](CC[C@@H]4[C@@]5(C)CC[C@H](OC(=O)CC(C)(C)C(=O)O)C(C)(C)[C@@H]5CC[C@]43C)[C@@H]12.OCCNCCO.OCCNCCO` [DSB-2 Diethanolamine, diethanolamine disalt of DSB], the “Improvement in oral bioavailability with respect to the NMG salt of DSB” value came out at 71.3%.
